Laboratory results from ChEMBL document CHEMBL5365467 (J Med Chem, 2023).
The source made the active and inactive calls. The calls are words filed in the database; no cut-off is given here.

By UniProt entry, the sequences of proteins in these tests, tags left out.
UniProt P10275, whole entry, looked up, stated change not applied: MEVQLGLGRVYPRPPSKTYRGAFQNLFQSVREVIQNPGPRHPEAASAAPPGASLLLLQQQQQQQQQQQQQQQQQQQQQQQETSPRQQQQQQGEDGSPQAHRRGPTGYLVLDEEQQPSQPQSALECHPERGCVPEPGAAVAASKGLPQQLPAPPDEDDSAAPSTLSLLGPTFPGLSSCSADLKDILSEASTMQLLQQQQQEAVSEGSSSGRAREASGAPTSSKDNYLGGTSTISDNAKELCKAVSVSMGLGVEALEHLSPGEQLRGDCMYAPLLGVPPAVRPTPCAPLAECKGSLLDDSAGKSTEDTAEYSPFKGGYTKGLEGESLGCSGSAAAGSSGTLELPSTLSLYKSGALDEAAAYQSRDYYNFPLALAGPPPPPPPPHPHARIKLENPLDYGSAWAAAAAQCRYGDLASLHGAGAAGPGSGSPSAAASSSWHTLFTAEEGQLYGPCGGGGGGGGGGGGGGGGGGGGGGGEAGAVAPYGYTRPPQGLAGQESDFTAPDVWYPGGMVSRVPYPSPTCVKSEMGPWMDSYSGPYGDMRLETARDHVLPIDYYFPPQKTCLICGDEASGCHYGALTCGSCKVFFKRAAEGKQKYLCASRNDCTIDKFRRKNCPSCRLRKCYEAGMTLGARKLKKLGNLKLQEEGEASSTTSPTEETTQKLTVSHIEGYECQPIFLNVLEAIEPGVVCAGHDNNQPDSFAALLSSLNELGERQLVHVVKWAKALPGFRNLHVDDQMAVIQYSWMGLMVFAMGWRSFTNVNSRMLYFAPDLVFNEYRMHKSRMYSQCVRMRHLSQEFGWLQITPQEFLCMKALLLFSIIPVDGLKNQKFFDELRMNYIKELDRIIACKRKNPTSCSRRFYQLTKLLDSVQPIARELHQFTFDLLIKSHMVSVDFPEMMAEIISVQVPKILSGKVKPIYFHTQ
UniProt Q96SW2, whole entry, looked up, stated change not applied: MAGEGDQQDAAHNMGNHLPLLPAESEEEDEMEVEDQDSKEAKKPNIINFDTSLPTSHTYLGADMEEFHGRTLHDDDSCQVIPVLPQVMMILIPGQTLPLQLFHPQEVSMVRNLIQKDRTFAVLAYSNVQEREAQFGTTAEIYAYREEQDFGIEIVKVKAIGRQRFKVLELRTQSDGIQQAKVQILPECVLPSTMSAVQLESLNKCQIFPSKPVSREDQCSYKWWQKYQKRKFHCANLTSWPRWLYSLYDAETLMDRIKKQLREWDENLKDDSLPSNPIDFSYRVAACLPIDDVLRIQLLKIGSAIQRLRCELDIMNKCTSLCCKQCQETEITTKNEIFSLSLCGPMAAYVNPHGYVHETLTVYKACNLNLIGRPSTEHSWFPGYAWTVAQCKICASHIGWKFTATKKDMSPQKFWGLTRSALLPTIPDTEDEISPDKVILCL

What was measured:
VCaP [1] = assay: Antitumor activity against human VCaP cells xenografted in po dosed CB17-SCID mouse assessed as inhibition of tumor growth administered for 21 days; assay type: functional, organism-based; conditions: dose 10-40 mg/kg, time 21.0 day
[2] = test system: Protein cereblon/Androgen receptor (Homo sapiens), P10275+Q96SW2 [UNDEFINED MUTATION]; assay: Induction of AR 388 to 390 deletion mutant degradation in HEK293 cells assessed as induction of androgen receptor degradation at 0.01 to 10 uM measured for 24 hrs by Western blot analysis; assay type: cell-based; conditions: dose 0.01-10 µM
[3] = test system: Protein cereblon/Androgen receptor (Homo sapiens), P10275+Q96SW2 [T878A,L702H]; assay: PROTAC activity at AR T878A/L702H double mutant/CRBN in human MDA-PCa-2b cells assessed as induction of androgen receptor degradation by measuring maximum efficacy measured at 24 hrs by Western blot analysis relative to control; assay type: cell-based
[4] = biological target: T1, Protein cereblon/Androgen receptor (Homo sapiens, UniProt P10275+Q96SW2); assay: PROTAC activity at AR/CRBN in human VCaP cells assessed as induction of androgen receptor degradation at 10 to 100 nM measured after 1 hr by Western blot analysis relative to control; assay type: cell-based; conditions: dose 10-100 nM
[5] = biological target: T1, Protein cereblon/Androgen receptor; assay: PROTAC activity at AR/CRBN in human LNCaP cells assessed as induction of androgen receptor degradation at 10 to 100 nM measured after 1 hr by Western blot analysis relative to control; assay type: cell-based; conditions: dose 10-100 nM
[6] = biological target: T1, Protein cereblon/Androgen receptor; assay: PROTAC activity at AR/CRBN in human VCaP cells assessed as induction of androgen receptor degradation at 10 to 100 nM measured after 3 to 6 hr by Western blot analysis; assay type: cell-based; conditions: dose 10-100 nM, time 3-6 hrs
[7] = biological target: T1, Protein cereblon/Androgen receptor; assay: PROTAC activity at AR/CRBN in human LNCaP cells assessed as induction of androgen receptor degradation at 10 to 100 nM measured after 3 to 6 hr by Western blot analysis; assay type: cell-based; conditions: dose 10-100 nM, time 3-6 hrs
[8] = biological target: T1, Protein cereblon/Androgen receptor; assay: PROTAC activity at AR/CRBN in HEK293 cells assessed as induction of androgen receptor degradation at 1 nM measured for 24 hrs by Western blot analysis; assay type: cell-based
[9] = test system: Protein cereblon/Androgen receptor (Homo sapiens), P10275+Q96SW2 [K388R]; assay: Induction of AR K388R mutant degradation in HEK293 cells assessed as induction of androgen receptor degradation at 0.01 to 10 uM measured for 24 hrs by Western blot analysis; assay type: cell-based; conditions: dose 0.01-10 µM
[10] = test system: Protein cereblon/Androgen receptor (Homo sapiens), P10275+Q96SW2 [K388R]; assay: Induction of AR K388R mutant degradation in HEK293 cells assessed as induction of androgen receptor degradation at 1 nM measured for 24 hrs by Western blot analysis; assay type: cell-based
[11] = test system: Protein cereblon/Androgen receptor (Homo sapiens), P10275+Q96SW2 [V716M]; assay: Induction of AR V716M mutant degradation in HEK293 cells assessed as induction of androgen receptor degradation at 1 nM measured for 24 hrs by Western blot analysis; assay type: cell-based
[12] = test system: Protein cereblon/Androgen receptor (Homo sapiens), P10275+Q96SW2 [UNDEFINED MUTATION]; assay: Induction of AR W742C mutant degradation in HEK293 cells assessed as induction of androgen receptor degradation at 1 nM measured for 24 hrs by Western blot analysis; assay type: cell-based
[13] = test system: Protein cereblon/Androgen receptor (Homo sapiens), P10275+Q96SW2 [UNDEFINED MUTATION]; assay: Induction of AR H875Y mutant degradation in HEK293 cells assessed as induction of androgen receptor degradation at 1 nM measured for 24 hrs by Western blot analysis; assay type: cell-based
[14] = test system: Protein cereblon/Androgen receptor (Homo sapiens), P10275+Q96SW2 [UNDEFINED MUTATION]; assay: Induction of AR F877L mutant degradation in HEK293 cells assessed as induction of androgen receptor degradation at 1 nM measured for 24 hrs by Western blot analysis; assay type: cell-based
[15] = test system: Protein cereblon/Androgen receptor (Homo sapiens), P10275+Q96SW2 [UNDEFINED MUTATION]; assay: Induction of AR T878A mutant degradation in HEK293 cells assessed as induction of androgen receptor degradation at 1 nM measured for 24 hrs by Western blot analysis; assay type: cell-based
[16] = test system: Protein cereblon/Androgen receptor (Homo sapiens), P10275+Q96SW2 [UNDEFINED MUTATION]; assay: Induction of AR 873 to 879 deletion mutant degradation in HEK293 cells assessed as induction of androgen receptor degradation at 1 nM measured for 24 hrs by Western blot analysis; assay type: cell-based
[17] = biological target: T1, Protein cereblon/Androgen receptor; assay: PROTAC activity at AR/CRBN in human VCaP cells assessed as induction of androgen receptor degradation at 100 nM measured for 3 hrs in presence of enzalutamide by Western blot analysis; assay type: cell-based
[18] = biological target: T1, Protein cereblon/Androgen receptor; assay: PROTAC activity at AR/CRBN in human VCaP cells assessed as induction of androgen receptor degradation at 100 nM measured for 3 hrs in presence of thalidomide by Western blot analysis; assay type: cell-based
[19] = biological target: T1, Protein cereblon/Androgen receptor; assay: PROTAC activity at AR/CRBN in human VCaP cells assessed as induction of androgen receptor degradation at 100 nM measured for 3 hrs in presence of MG132 by Western blot analysis; assay type: cell-based
[20] = biological target: T1, Protein cereblon/Androgen receptor; assay: PROTAC activity at AR/CRBN in human VCaP cells assessed as induction of androgen receptor degradation at 100 nM measured for 3 hrs in presence of MLN4924 by Western blot analysis; assay type: cell-based
VCaP [21] = assay: Downregulation of KLK3 expression in human VCaP cells measured for 24 hrs; assay type: functional, cell-based; conditions: dose 0.03-1000 nM
LNCaP [22] = assay: Downregulation of KLK3 expression in human LNCaP cells measured for 24 hrs; assay type: functional, cell-based; conditions: dose 0.03-1000 nM
VCaP [23] = assay: Downregulation of TMPRSS2 expression in human VCaP cells measured for 24 hrs; assay type: functional, cell-based; conditions: dose 0.03-1000 nM
LNCaP [24] = assay: Downregulation of TMPRSS2 expression in human LNCaP cells measured for 24 hrs; assay type: functional, cell-based; conditions: dose 0.03-1000 nM
[25] = biological target: T1, Protein cereblon/Androgen receptor; assay: PROTAC activity at AR/CRBN in human VCaP cells assessed as induction of androgen receptor degradation at 0.1 to 1000 nM measured at 24 hrs by proteomics analysis; assay type: cell-based; conditions: dose 0.1-1000 nM
VCaP [26] = assay: Downregulation of PCLAF protein expression in human VCaP cells at 1 uM measured for 24 hrs by proteomics analysis; assay type: functional, cell-based
VCaP [27] = assay: Downregulation of PLOD2 protein expression in human VCaP cells at 1 uM measured for 24 hrs by proteomics analysis; assay type: functional, cell-based
VCaP [28] = assay: Downregulation of HAUS8 protein expression in human VCaP cells at 100 nM measured for 24 hrs by proteomics analysis; assay type: functional, cell-based

For C[C@H]1CC2(CCN(c3ccc(C(=O)N4CCC(CN5Cc6cc7c(cc6C5)C(=O)N(C5CCC(=O)NC5=O)C7=O)CC4)cc3)CC2)CN1c1ccc(C#N)c(Cl)c1 (stereo partly drawn), the Activity (VCaP [1]) was “Dose-Dependent Effect”, the Activity [2] was “Active” and the Emax [3] was > 95%. For the same molecule, the Activity [4] was > 50%, the Activity [5] was > 50% and the Activity [6] was “Active”. For the same molecule, the Activity [7] was “Active”, the Activity [8] was “Active” and the Activity [9] was “Active”. The Activity [10] was “Active”, the Activity [11] was “Active” and the Activity [12] was “Active”. For the same molecule, the Activity [13] was “Active”, the Activity [14] was “Active” and the Activity [15] was “Active”. The Activity [16] was “Active”, the Activity [17] was “Active” and the Activity [18] was “Active”. For the same molecule, the Activity [19] was “Active”, the Activity [20] was “Active” and the Activity (VCaP [21]) was “Dose-Dependent Effect”. The Activity (LNCaP [22]) was “Dose-Dependent Effect”, the Activity (VCaP [23]) was “Dose-Dependent Effect” and the Activity (LNCaP [24]) was “Dose-Dependent Effect”. The Activity [25] was > 75%, the Activity (VCaP [26]) was “inactive” and the Activity (VCaP [27]) was “inactive”. The Activity (VCaP [28]) was “inactive”.
